Literature values, collected in article PMC6273692, “Binding Mode and Selectivity of Steroids towards Glucose-6-phosphate Dehydrogenase from the Pathogen Trypanosoma cruzi” (Molecules, 2016).

What was measured:
Details in all cases: cited from earlier work
T. brucei = system: T. brucei
T. cruzi = system: T. cruzi
L. mexicana = system: L. mexicana

For `C[C@]12CC[C@H](O)CC1=CC[C@@H]1[C@@H]2CC[C@]2(C)C(=O)CC[C@@H]12` [DHEA, dehydroepiandrosterone], the “cytotoxicity towards T. brucei” value (T. brucei) is listed as “cytotoxic”, the “cytotoxicity towards T. cruzi” value (T. cruzi) is listed as “cytotoxic” and the “cytotoxicity against L. mexicana” value (L. mexicana) is listed as “not against L. mexicana”.
